Where “and” joins values, the source holds several entries; their conditions need not be identical. Equal entries are not always repeated.
Tested on: SARS-CoV-2 (USA_WA1/2020)
Assay: SARS-CoV-2 viral cytopathic effect assay

Q: Which “nitazoxanide concentration at which synergy with remdesivir was observed” value does the source give for `CC(=O)Oc1ccccc1C(=O)Nc1ncc([N+](=O)[O-])s1` [Nitazoxanide] here?
A: > 1.25 μM and > 0.383 mg/L

— publication PMC7337386 (bioRxiv, 2020)
